Laboratory results taken from BindingDB's records for 16621537.

The chains behind the UniProt entries cited, without tags or fusion partners. Where a name states a change or a piece, a line headed by the entry shows the natural chain unless it says otherwise.
UniProt P43166: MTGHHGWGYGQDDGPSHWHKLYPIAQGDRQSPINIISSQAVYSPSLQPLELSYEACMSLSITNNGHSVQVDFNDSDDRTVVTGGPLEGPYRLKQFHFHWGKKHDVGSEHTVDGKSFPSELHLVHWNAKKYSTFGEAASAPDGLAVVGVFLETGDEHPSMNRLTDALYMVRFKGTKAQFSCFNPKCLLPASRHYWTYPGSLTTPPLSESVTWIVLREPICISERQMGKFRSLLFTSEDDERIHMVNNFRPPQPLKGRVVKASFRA

Target: Carbonic anhydrase 7 (Homo sapiens, UniProt P43166)

## [N-]=[N+]=[N-]
  Ki: 1410 µM
